Consider one molecule from patent US7728037B2, “Alpha-ketoglutarates of active ingredients and compositions containing same” (Sigma-Tau Industrie Farmaceutiche Riunite S.p.A., priority 2001, dated 2010).

The assay has as its system rabbit heart papillary muscle subjected to hypoxia. Description: Metabolic tests: ATP concentrations in rabbit heart papillary muscle subjected to hypoxia after oral treatment. The assay is classed as in vivo. As to conditions: 1 g/kg by mouth or equimolecular doses, three consecutive days; tissue held anoxic for 90 minutes; untreated controls 1.70±0.68 to 0.46±0.071. The text has this: After three consecutive days of treatment, sections of papillary muscle were isolated from the rabbit hearts and were perfused in a thermostatized bath with a saturated solution of 100% O2.

As to `O=C(O)CCC(=O)C(=O)O` [alpha-ketoglutaric acid], the ATP concentrations in papillary muscle after hypoxia turned out to be 0.75 ± 0.8 µmol/g tissue.
